Assay results taken from patent publication US7214716B2, “Agonists specific for the peripheral cannabinoid receptor” (Yissum Research Development Co. of the Hebrew University of …, priority 2000, dated 2007).

Chains of the proteins cited; added tags and fusions are not shown.
UniProt P34972, whole entry: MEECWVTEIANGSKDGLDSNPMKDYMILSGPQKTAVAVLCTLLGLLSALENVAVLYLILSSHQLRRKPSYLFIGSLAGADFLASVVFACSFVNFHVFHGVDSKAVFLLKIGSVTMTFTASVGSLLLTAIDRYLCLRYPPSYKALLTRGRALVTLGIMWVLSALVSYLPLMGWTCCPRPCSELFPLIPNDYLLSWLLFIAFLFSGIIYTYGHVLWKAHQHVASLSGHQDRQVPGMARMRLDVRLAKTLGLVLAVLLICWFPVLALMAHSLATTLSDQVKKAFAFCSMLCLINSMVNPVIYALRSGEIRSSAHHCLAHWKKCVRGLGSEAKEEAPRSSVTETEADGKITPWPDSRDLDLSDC

Biological target: T1, CB2 cannabinoid receptor (Homo sapiens, UniProt P34972)
T1 construct: expressed in transfected cells; host or cells: COS-7
Assay: biochemical
Type: binding
From the text: This difference in binding is reflected in the results of the pharmacological assays. […] Such effects are considered to be mediated by the CBI receptor.

Q: For `CCCCCCC(C)(C)c1cc(OC)c([C@H]2C=C(CO)[C@H]3CC2C3(C)C)c(OC)c1` (single isomer, unassigned; (+)) [HU-308, (+)-(1-a-H,-(3-H,5-a-H)-4-(2,6-dimethoxy-4-(1,1-dimethylheptyl)phenyl]-6,6-dimethylbicycloj3.1.1]hept-2-ene-2-carbinol], which Ki is on record?
A: 22.7 ± 3.9 nM
